Reference: PMC5652080

B1: Triosephosphate isomerase (WT HsTIM) (Homo sapiens) (protein)
chain: APSRKFFVGGNWKMNGRKQSLGELIGTLNAAKVPADTEVVCAPPTAYIDFARQKLDPKIAVAAQNCYKVTNGAFTGEISPGMIKDCGATWVVLGHSERRHVFGESDELIGQKVAHALAEGLGVIACIGEKLDEREAGITEKVVFEQTKVIADNVKDWSKVVLAYEPVWAIGTGKTATPQQAQEVHEKLRGWLKSNVSDAVAQSTRIIYGGSVTGATCKELASQPDVDGFLVGGASLKPEFVDIINAKQ
B2: Triosephosphate isomerase (G233D HsTIM) (Homo sapiens; G233D) (protein)
chain: APSRKFFVGGNWKMNGRKQSLGELIGTLNAAKVPADTEVVCAPPTAYIDFARQKLDPKIAVAAQNCYKVTNGAFTGEISPGMIKDCGATWVVLGHSERRHVFGESDELIGQKVAHALAEGLGVIACIGEKLDEREAGITEKVVFEQTKVIADNVKDWSKVVLAYEPVWAIGTGKTATPQQAQEVHEKLRGWLKSNVSDAVAQSTRIIYGGSVTGATCKELASQPDVDGFLVDGASLKPEFVDIINAKQ

How the values were obtained:
[1] = substrate: O=C(CO)COP(=O)(O)O; assay: purified protein; conditions: active site; 25.0 °C
[2] = substrate: O=C[C@H](O)COP(=O)(O)O; assay: purified protein; conditions: active site; 25.0 °C

Protein	Km [1]	kcat [1]	kcat/Km [1]	Km [2]	kcat [2]	kcat/Km [2]
B1	180 ± 30 µM	2.5 s⁻¹	13800 M⁻¹ s⁻¹	140 ± 10 µM	4000 ± 1000 s⁻¹	2.83e+07 M⁻¹ s⁻¹
B2	130 ± 20 µM	2.33 s⁻¹	18300 M⁻¹ s⁻¹	180 ± 50 µM	1070 ± 117 s⁻¹	6e+06 M⁻¹ s⁻¹
